{"sequences": {"note": "Amino acid sequences for entries named in this document (tags omitted).", "UniProt P29371, whole entry": "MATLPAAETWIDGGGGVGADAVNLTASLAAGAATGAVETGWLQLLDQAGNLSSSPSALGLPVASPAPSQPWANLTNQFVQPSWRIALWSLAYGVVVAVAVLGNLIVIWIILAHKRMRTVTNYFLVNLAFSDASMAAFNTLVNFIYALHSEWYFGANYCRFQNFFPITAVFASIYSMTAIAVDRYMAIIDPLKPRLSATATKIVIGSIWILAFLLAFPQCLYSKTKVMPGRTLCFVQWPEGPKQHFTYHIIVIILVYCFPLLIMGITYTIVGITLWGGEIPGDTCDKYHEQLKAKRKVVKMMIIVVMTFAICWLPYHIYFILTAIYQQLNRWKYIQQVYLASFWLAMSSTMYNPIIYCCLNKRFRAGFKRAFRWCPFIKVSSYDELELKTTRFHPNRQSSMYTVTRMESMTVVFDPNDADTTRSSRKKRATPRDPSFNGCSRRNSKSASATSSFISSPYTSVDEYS"}, "source": "patent US20110224247A1", "about": "“AZAISOQUINOLINONE DERIVATIVES AS NK3 ANTAGONISTS” (H. LUNDBECK A/S, priority 2010, published 2011)", "molecular_target": "human NK3 receptor (Homo sapiens, UniProt P29371)", "assay": "NK3 receptor binding assay", "conditions": "read-out: Affinity (Ki/nM); filter-based competition binding vs ~0.05 nM 3H-AE93103, membranes of BHK cells expressing human NK3; Ki by Cheng Prusoff", "procedure": "Membranepreparation: BHK cells stably expressing the human NK3 receptor were seeded in harvesting plates in Dulbeccos MEM containing GlutaMax (862 mg/l), 1 mM sodium pyruvate, 10% fetal calf serum, 1% Pen/Strep, 1 mg/ml G418 and were grown at 34° C. in a humidified atmosphere containing 10% CO2. To increase receptor expression, 10 μM trichotatin A was added to the media 24 hours before harvest of the cells at a confluency of app 90%. Prior to the harvesting, the cells were washed twice with PBS without Mg^2+ and Ca^2+ and subsequently scrapped of in 10 ml PBS pr harvesting plate. The cells suspension were centrifuged at 1500×G in three minutes before resuspension in 15 mM Tris-HCl pH 7,5 buffer containing 2 mM MgCl2; 0,3 mM EDTA and 1 mM EGTA (buffer A). The cell suspention was homogenised and subsequently centrifuged at 40000×G in 30 minutes. The membrane-pellet was resuspended in buffer A containing 250 mM sucrose, alliquoted and stored at −80° C.\nAffinity assay description: The assay is performed as a filter-based competition-binding in a 50 mM Tris pH 7.4 assay buffer containing 120 mM NaCl and 3 mM MnCl2. App 0.05 nM ^3H-AE93103 was mixed with test compounds before addition of 0.15 μg of a homogenised NK3 membrane preparation in a total volume of 300 μl. […] The filter is dried and added scintillation liquid before the plate is counted in a topcounter 5 minutes pr well. […]", "data": [{"smiles": "CCCNn1c(C)c(C(=O)N[C@H](c2ccccc2)C2CC2)c2cnccc2c1=O", "values": [{"measurement": "Ki", "value": 330, "unit": "nM"}]}]}
